Laboratory results published in publication PMC10773898, “Evidence of DISC1 as an arsenic binding protein and implications regarding its role as a translational activator” (Frontiers in Molecular Biosciences, 2023).

The chains behind the UniProt entries cited, without tags or fusion partners. Residues count along the entry.
UniProt Q9NRI5, 598-854 W602F/W752F limits assumed: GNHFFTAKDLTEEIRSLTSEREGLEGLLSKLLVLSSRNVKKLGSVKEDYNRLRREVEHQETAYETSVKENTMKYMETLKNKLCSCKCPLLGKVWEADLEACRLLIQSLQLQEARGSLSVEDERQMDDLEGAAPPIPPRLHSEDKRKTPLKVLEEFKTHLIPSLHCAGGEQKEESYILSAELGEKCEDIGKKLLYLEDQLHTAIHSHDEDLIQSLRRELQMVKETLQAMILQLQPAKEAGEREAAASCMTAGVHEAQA

Target: DISC1 C-terminal construct (598-854), "WT" (Homo sapiens, UniProt Q9NRI5, W602F/W752F)
Experiment: tryptophan fluorescence quenching titration
Conditions: read-out: Kd (high); 50 mM Tris-HCl, 10 mM NaCl, pH 8.0, 2 μM protein; two-site model, specific (stronger) site, Cys motif C680/C682/C684; one Kd from collective fit of WT and all variants

O[As](O)O
Kd: 880 nM
